{"sequences": {"note": "By UniProt entry, the sequences of proteins in these tests, tags left out. Where a name states a change or a piece, a line headed by the entry shows the natural chain unless it says otherwise.", "UniProt P42338, whole entry": "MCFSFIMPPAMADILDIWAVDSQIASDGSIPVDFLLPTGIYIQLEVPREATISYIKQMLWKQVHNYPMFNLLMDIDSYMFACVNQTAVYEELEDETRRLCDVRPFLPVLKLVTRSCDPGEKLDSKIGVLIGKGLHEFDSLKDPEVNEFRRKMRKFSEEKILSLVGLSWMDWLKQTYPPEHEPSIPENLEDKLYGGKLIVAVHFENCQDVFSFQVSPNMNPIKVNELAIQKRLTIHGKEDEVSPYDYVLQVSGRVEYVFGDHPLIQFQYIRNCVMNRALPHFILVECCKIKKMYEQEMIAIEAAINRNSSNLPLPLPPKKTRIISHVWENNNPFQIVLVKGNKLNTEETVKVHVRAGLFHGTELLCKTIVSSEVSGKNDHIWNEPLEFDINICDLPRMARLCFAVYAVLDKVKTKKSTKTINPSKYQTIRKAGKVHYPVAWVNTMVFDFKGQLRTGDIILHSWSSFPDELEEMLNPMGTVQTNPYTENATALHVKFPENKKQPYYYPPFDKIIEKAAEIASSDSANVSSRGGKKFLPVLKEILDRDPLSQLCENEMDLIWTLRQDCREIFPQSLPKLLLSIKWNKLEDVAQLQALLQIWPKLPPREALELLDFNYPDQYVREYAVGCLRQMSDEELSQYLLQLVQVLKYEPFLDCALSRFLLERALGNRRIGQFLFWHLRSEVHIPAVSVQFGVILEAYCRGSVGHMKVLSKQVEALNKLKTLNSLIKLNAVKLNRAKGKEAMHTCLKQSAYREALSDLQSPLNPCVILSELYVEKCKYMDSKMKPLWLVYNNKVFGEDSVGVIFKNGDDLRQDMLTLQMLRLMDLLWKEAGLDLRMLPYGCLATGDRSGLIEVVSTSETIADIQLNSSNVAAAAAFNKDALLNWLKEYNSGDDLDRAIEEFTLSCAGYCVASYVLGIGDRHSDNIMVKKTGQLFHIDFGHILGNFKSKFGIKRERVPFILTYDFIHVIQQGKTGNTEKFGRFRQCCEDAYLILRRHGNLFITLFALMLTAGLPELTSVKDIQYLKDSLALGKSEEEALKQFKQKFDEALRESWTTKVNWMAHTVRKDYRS", "UniProt P42336, whole entry": "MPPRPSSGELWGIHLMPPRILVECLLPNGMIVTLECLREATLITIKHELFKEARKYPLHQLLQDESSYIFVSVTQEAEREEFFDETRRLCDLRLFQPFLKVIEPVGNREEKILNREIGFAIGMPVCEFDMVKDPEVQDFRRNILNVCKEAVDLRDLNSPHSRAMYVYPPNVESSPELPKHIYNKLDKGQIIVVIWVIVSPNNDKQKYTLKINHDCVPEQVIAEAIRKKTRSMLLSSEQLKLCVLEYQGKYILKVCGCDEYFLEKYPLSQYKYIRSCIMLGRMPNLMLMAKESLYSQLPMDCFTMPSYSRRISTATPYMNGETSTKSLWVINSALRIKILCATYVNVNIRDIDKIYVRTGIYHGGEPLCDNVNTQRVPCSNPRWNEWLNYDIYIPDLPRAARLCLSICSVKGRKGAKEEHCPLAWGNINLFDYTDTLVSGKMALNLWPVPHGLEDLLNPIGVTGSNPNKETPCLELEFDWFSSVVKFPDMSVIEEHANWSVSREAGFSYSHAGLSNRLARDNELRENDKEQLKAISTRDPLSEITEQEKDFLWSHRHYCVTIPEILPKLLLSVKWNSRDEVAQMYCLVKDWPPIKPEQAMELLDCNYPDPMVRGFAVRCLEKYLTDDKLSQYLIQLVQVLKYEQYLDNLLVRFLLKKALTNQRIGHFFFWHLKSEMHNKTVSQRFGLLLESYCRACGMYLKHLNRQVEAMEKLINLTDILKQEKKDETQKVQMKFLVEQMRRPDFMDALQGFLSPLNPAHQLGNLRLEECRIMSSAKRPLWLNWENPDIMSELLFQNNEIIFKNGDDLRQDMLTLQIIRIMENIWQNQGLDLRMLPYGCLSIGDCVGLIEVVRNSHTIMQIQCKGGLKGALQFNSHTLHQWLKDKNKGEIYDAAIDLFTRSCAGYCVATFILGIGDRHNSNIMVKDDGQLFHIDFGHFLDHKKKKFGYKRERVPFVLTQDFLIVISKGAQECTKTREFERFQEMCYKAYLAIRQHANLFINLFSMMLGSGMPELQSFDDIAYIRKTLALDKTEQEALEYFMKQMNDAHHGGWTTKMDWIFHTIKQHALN", "UniProt P48736, whole entry": "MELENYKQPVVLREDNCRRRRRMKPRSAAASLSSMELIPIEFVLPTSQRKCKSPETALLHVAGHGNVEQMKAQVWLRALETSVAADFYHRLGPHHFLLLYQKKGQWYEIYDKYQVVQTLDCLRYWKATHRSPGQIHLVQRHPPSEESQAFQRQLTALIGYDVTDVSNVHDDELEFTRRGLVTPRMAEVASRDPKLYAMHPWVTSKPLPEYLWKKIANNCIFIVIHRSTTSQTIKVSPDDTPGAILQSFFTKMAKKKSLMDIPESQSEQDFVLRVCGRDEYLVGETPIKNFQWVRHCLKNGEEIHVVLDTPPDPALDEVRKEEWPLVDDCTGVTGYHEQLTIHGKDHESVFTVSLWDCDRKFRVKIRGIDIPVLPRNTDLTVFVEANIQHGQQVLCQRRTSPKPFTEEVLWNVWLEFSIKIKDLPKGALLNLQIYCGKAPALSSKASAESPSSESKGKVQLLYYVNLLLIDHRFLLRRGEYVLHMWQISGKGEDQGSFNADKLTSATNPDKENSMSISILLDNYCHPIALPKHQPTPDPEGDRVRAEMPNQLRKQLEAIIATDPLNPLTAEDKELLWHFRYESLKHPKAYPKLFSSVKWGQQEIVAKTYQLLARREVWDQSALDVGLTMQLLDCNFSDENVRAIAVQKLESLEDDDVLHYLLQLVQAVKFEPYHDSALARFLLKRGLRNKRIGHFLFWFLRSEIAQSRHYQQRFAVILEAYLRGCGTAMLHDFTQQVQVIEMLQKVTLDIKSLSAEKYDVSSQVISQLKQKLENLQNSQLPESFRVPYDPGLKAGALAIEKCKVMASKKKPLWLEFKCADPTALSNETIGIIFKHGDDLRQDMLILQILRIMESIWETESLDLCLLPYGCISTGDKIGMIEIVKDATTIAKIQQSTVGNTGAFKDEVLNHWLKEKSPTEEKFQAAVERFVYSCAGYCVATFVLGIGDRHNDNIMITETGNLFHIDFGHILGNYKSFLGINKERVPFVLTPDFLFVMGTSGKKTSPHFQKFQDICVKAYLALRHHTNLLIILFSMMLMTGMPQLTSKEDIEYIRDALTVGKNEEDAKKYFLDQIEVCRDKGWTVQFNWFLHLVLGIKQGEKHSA"}, "source": "patent US10526316B2", "about": "“Quinoxaline and pyridopyrazine derivatives as PI3Kβ inhibitors” (Janssen Pharmaceutica NV, priority 2015, dated 2020)", "key": {"[1]": {"molecular_target": "PI3Kβ (Homo sapiens, UniProt P42338)", "experiment": "Enzyme binding assay (KINOMEscan, DiscoveRx)", "settings": "read-out: Kd PIK3Cβ_h", "method": "(§1) Enzyme Binding Assays (KINOMEscan®)\n(§2) Kinase enzyme binding affinities of compounds disclosed herein were determined using the KINOMEscan technology performed by DiscoveRx Corporation, San Diego, Calif., USA (www.kinomescan.com). Table A reports the obtained Kd values (nM), with the Kd being the inhibitor binding constant: […]"}, "[2]": {"molecular_target": "PI3Kδ (Homo sapiens, UniProt O00329)", "experiment": "Enzyme binding assay (KINOMEscan, DiscoveRx)", "settings": "read-out: Kd PIK3Cδ_h"}, "[3]": {"molecular_target": "kinase enzymes (Homo sapiens, UniProt P42336)", "experiment": "Enzyme binding assay (KINOMEscan, DiscoveRx), further kinases of Table A", "settings": "read-out: Kd PIK3Cα_h, PIK3Cα_h", "method": "as §1, §2"}, "[4]": {"molecular_target": "kinase enzymes (Homo sapiens, UniProt P48736)", "experiment": "Enzyme binding assay (KINOMEscan, DiscoveRx), further kinases of Table A", "settings": "read-out: Kd PIK3Cγ_h, PIK3Cγ_h", "method": "as §1, §2"}, "[5]": {"test_system": "Akt phosphorylated at Ser473 in PC-3 cells", "experiment": "Cellular assay: phosphorylation of Akt at Ser473 in PC-3 cells (MSD ELISA)", "assay_type": "cell-based", "settings": "read-out: IC50 pAkt_S473, 60 min compound incubation"}, "[6]": {"test_system": "Akt phosphorylated at Thr308 in PC-3 cells", "experiment": "Cellular assay: phosphorylation of Akt at Thr308 in PC-3 cells (MSD ELISA)", "assay_type": "cell-based", "settings": "read-out: IC50 pAkt_Thr308, 60 min compound incubation"}, "[7]": {"molecular_target": "kinase enzymes (Homo sapiens, UniProt P42345)", "experiment": "Enzyme binding assay (KINOMEscan, DiscoveRx), further kinases of Table A", "settings": "read-out: Kd MTOR_h, MTOR_h", "method": "as §1, §2"}}}
{"smiles": "Cc1c(F)cccc1CNc1cc(C(=O)NCCO)cc2ncc(N3CCOCC3)nc12", "note": "[Compound 336]", "values": [{"measurement": "Kd", "setting": "[1]", "value": 4, "unit": "nM"}]}
{"smiles": "CC(Oc1ccc(F)c(F)c1)c1cc(C(=O)N2CC[C@@H](N(C)C)C2)cc2ncc(N3CCOCC3)nc12", "note": "(single isomer, unassigned) [Compound 298b]", "values": [{"measurement": "Kd", "setting": "[1]", "value": 4, "unit": "nM"}, {"measurement": "Kd", "setting": "[2]", "value": 724, "unit": "nM"}, {"measurement": "Kd", "setting": "[3]", "value": 4790, "unit": "nM"}, {"measurement": "Kd", "setting": "[4]", "value": 24500, "unit": "nM"}, {"measurement": "IC50", "setting": "[5]", "value": 135, "unit": "nM"}, {"measurement": "IC50", "setting": "[6]", "value": 47, "unit": "nM"}]}
{"smiles": "CNCCN(C)Cc1cc(C2CCCN2c2cc(F)cc(F)c2)c2nc(N3CCOCC3)cnc2c1", "note": "(stereo not drawn)", "values": [{"measurement": "Kd", "setting": "[1]", "value": 0.3, "unit": "nM"}, {"measurement": "Kd", "setting": "[2]", "value": 33, "unit": "nM"}, {"measurement": "Kd", "setting": "[3]", "value": 219, "unit": "nM"}, {"measurement": "Kd", "setting": "[7]", "value": 21900, "unit": "nM"}, {"measurement": "Kd", "setting": "[4]", "value": 191, "unit": "nM"}, {"measurement": "IC50", "setting": "[5]", "value": 41, "unit": "nM"}, {"measurement": "IC50", "setting": "[6]", "value": 28, "unit": "nM"}]}
{"smiles": "CC(Nc1cc(C(=O)NCCO)cc2ncc(N3CCOCC3)nc12)c1cc(F)cc(F)c1", "note": "(stereo not drawn)", "values": [{"measurement": "Kd", "setting": "[1]", "value": 98, "unit": "nM"}, {"measurement": "Kd", "setting": "[2]", "value": 2820, "unit": "nM"}, {"measurement": "Kd", "setting": "[3]", "value": 16200, "unit": "nM"}, {"measurement": "Kd", "setting": "[7]", "value": 13200, "unit": "nM"}, {"measurement": "Kd", "setting": "[4]", "value": "> 30200", "unit": "nM"}, {"measurement": "IC50", "setting": "[5]", "value": "> 513", "unit": "nM"}, {"measurement": "IC50", "setting": "[6]", "value": "> 513", "unit": "nM"}]}
